Source: patent US7208512B2, “Benzodifuranimidazoline and benzofuranimidazoline derivatives and their use for the treatment of glaucoma” (Alcon, Inc., priority 2001, dated 2007)

Amino acid sequences for entries named in this document (tags omitted).
UniProt P14842, whole entry: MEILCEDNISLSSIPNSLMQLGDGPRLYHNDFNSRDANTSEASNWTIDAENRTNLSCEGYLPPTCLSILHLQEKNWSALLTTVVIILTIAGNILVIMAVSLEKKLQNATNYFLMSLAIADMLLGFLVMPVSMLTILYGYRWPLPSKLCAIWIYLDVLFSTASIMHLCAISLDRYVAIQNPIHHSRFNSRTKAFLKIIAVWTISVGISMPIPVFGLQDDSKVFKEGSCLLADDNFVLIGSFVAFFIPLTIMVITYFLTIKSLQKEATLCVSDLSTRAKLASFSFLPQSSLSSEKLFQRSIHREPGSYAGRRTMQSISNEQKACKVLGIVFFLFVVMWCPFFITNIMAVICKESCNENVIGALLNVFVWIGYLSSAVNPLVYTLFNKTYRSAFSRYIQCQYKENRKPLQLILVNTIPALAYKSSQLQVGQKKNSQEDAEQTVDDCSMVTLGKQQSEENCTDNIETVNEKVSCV

Biological target: 5-HT2 receptor (Rattus norvegicus, UniProt P14842)
Assay: 5-HT2 functional assay: phosphoinositide (PI) turnover in A7r5 rat vascular smooth muscle cells
Type: cell-based
Parameters: A7r5 rat vascular smooth muscle cells; endogenous in cells; host or cells: A7r5 rat vascular smooth muscle cells
Settings: compared to 5-HT (set at 100%)
Experimental: The relative agonist activity of serotonergic compounds at the 5-HT2 receptor can be determined in vitro using the ability of the compounds to stimulate the production of [^3H]inositol phosphates in [^3H]myo-inositol-labeled A7r5 rat vascular smooth muscle cells by their ability to activate the enzyme phospholipase C. These cells are grown in culture plates, maintained in a humidified atmosphere of 5% CO2 and 95% air and fed semi-weekly with Dulbecco's modified Eagle medium (DMEM) containing 4.5 g/l glucose and supplemented with 2 mM glutamine, 10 μg/ml gentamicin, and 10% fetal bovine serum. For the purpose of conducting the phosphoinositide (PI) turnover experiments, the A7r5 cells are cultured in 24-well plates as previously described (Griffin et al. 1998). Confluent cells are exposed for 24–30 hrs to 1.5 μCi [^3H]-myo-inositol (18.3 Ci/mmol) in 0.5 ml of serum-free medium. […] The eluate (4 ml) is collected, mixed with 15 ml scintillation fluid, and the total [^3H]-IPs determined by scintillation counting on a beta-counter. Concentration-response data are analyzed by the sigmoidal fit function of the Origin Scientific Graphics software (Microcal Software, Northampton, Mass.) to determine agonist potency (EC50 value) and efficacy (Emax). […]

With COc1cc(C[C@@H](C)N)c(OC)cc1I [(R)-DOI, reference compound] as the compound, how does the “Efficacy (Emax, %) (5-HT2 functional)” value read?
The value was 82%.
